Assay results from ChEMBL document CHEMBL5661985, “In silico design of novel probes for the atypical opioid receptor MRGPRX2” (Nat Chem Biol, 2017).

Protein sequences, listed by entry. Tags and fused reporters are not part of them. Lines headed by an entry give the natural chain unless they say otherwise; changes in a name come on top.
UniProt P41145: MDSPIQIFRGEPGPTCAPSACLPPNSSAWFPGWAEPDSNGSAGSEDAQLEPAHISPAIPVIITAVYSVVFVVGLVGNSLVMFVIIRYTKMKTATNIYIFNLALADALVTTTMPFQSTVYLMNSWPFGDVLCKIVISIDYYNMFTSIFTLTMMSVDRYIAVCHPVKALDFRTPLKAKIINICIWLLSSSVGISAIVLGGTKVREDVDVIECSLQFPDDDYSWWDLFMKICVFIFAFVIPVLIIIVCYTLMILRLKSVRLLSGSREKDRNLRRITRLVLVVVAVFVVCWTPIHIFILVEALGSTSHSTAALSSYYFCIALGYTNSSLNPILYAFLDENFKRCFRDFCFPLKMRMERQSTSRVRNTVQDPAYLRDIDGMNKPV

Target: Kappa-type opioid receptor (Homo sapiens, UniProt P41145)
Assay: Agonist activity at KOR (unknown origin) by Glo sensor assay
Format: functional

CC(C)C[C@H](NC(=O)[C@H](Cc1ccccc1)NC(=O)CNC(=O)CNC(=O)[C@@H](N)Cc1ccc(O)cc1)C(=O)N[C@@H](CCCN=C(N)N)C(=O)N[C@@H](CCCN=C(N)N)C(=O)N[C@@H](CCC(N)=O)C(=O)N[C@@H](Cc1ccccc1)C(=O)N[C@@H](CCCCN)C(=O)N[C@H](C(=O)N[C@H](C(=O)N[C@H](C(=O)O)[C@@H](C)O)C(C)C)C(C)C [DYNORPHIN B] was tested. Which EC50 did it give?
The EC50 was 0.13 nM.
